# miR122 inh: inhibitors of miR-122 in Huh7 cells; Huh7 miR-122 Renilla luciferase sensor, 48 h; neutral wells = 0, positive control = 100; activation (reporter increase), % at 12.5 µM; actives 0.3% (n = 340,000);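 active means mean replicate activation score at least 90 and every replicate individually at or above 90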;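 further: higher luciferase means less miR-122 activity so hits act as miR-122 inhibitors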
# UUG fidelity: yeast start codon fidelity modulation | S. cerevisiae UUG-firefly luciferase reporter, luminescence/redox ratio | activity score, % at 18.7 µM | 0.13% of 350,000 active | AID 602363;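 active means replicate mean at a twofold rise or more, about +100% in these data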;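 further: firefly luciferase made from a UUG start codon reports start codon fidelity; reporter light over untreated wells divided by growth signal over untreated wells; some hits fall short of that in this replicate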
# Cneo AK release: causes C. neoformans cell lysis | adenylate kinase release luminescence, 4 h; normalised: neutral wells 0, clomiphene wells 100 | lysis activity, % at 15 µM | actives 0.2% (n = 360,000);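 active means mean lysis activity across replicates of at least 80%, whatever share of replicates individually reach that level; inactive means mean lysis activity below 80%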
#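 Material: C. neoformans cells; Schedule: 4 h static compound exposure, 37 °C, read 1 h post-reagent; Measured by: adenylate kinase release luminescence; Read-out: signal increase indicating cell lysis; Controls: Clomiphene as positive lysis control.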
# Glyco luc inh: N-linked glycosylation inhibition; D54 ERlucT glycosylation luciferase reporter, 24 h; percent of 100 nM tunicamycin response; reporter increase, % at 12.5 µM; actives 0.23% (n = 360,000); AID 588692;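 active means mean luciferase reporter signal, scaled so untreated is 0 and the glycosylation-blocking control 100, at or above a set limit in every replicate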;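 further: luciferase carries N-glycosylation sites so blocking glycosylation raises the light; 0% = median of neutral control wells and 100% = median of 100 nM tunicamycin wells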
# C2C12 statin: suppressors of simvastatin-induced myotoxicity in C2C12 myotubes; ATP luminescence, 48 h; scaled: DMSO 0, geranylgeraniol control 100; rescue of ATP level, % at 7.49 µM; actives 0.78% (n = 330,000); AID 602340;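 active means mean ATP rescue above about 67%, or every replicate alone reaching that limit, limit read from the data, passing the limit was not always enough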;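 further: myotubes were challenged with 10 µM simvastatin during compound exposure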
# An asterisk follows results filed as active; x = no result given; [ ] = another dose, or the depositor's remark. Most compounds without a hit are left out; they make up all but 1.2% or so of the library.
Molecule,miR122 inh,UUG fidelity,Cneo AK release,Glyco luc inh,C2C12 statin
Cc1ccc(NC(=O)C2CCCN(S(=O)(=O)c3cccs3)C2)cc1 (stereo not drawn),0.9,-18.4,6.3,-0.3,77.6*
O=C(Nc1ccc(Br)cc1)C1CCCN1S(=O)(=O)c1cccs1 (stereo not drawn),0.9,4.3,0.4,-2.2,139.3*
CCN(C(=O)COC(=O)CCc1c[nH]c2ccccc12)c1c(N)n(Cc2ccccc2)c(=O)[nH]c1=O,-0.5,7.2,-1.7,1.8,0.5
C[C@@H]1CN([C@H](C)CO)C(=O)Cc2cc(NC(=O)Nc3cccc4ccccc34)ccc2O[C@H]1CN(C)CC1CCCCC1,-1.7[16.7 µM],1.6,4.2,x,75.0*
C[C@@H]1CN([C@H](C)CO)C(=O)Cc2cc(NC(=O)Nc3cccc4ccccc34)ccc2O[C@@H]1CN(C)CC1CCCCC1,7.9[16.7 µM],2.2,6.7,x,-4.5
C[C@@H]1CN([C@@H](C)CO)C(=O)Cc2cc(NC(=O)Nc3cccc4ccccc34)ccc2O[C@@H]1CN(C)C(=O)NC1CCCCC1,167.0*[16.7 µM],21.9,-6.1,x,-32.3
C[C@H]1CN([C@@H](C)CO)C(=O)Cc2cc(NC(=O)Nc3cccc4ccccc34)ccc2O[C@H]1CN(C)C(=O)NC1CCCCC1,15.9[16.7 µM],-5.4,7.1,x,22.0
CO[C@H]1CN(C)C(=O)c2ccc(NC(=O)C3CCC3)cc2OC[C@@H](C)N(CC2CCCCC2)C[C@@H]1C,x,x,-1.0,x,3.9
CCc1cccc2c(C(=O)CN3C(=O)NC4(CCCCC4)C3=O)c[nH]c12,115.4*,0.6,-0.3,18.6,-110.7
COCCNC(=O)C1CCCN(C(=O)c2cc(-c3cccs3)oc2C)CC1 (stereo not drawn),x,-22.6,-2.7,0.1,3.7
C[C@@H]1CN([C@H](C)CO)C(=O)c2cc(NS(=O)(=O)c3ccccc3)ccc2O[C@@H](C)CCCCO[C@H]1CN(C)C(=O)Nc1ccccc1,-11.1[16.7 µM],1.6,2.4,x,x
Cc1csc2ncc(C(=O)Nc3cccc(C(F)(F)F)c3)c(=O)n12,-1.7,-7.2,-0.4,1.5,106.8*
COC(=O)[C@@]1(CCC(=O)OC(C)(C)C)N=C(c2ccc(OCCCO)cc2)O[C@H]1c1ccccc1CN=[N+]=[N-],x,14.1,-0.6,x,x
C[C@@H]1CN([C@H](C)CO)C(=O)c2cc(NC(=O)C3CC3)ccc2O[C@H]1CN(C)CC1CCCCC1,5.0[16.7 µM],-14.3,1.2,x,-32.1
C[C@H]1CN([C@@H](C)CO)C(=O)c2cc(NC(=O)C3CC3)ccc2O[C@@H]1CN(C)CC1CCCCC1,4.9[16.7 µM],8.0,-1.3,x,80.5*

# One compound at a time, from the list above:
# `COCCNC(=O)C1CCCN(C(=O)c2cc(-c3cccs3)oc2C)CC1` (stereo not drawn) across the screens: miR122 inh = x; UUG fidelity = -22.6; Cneo AK release = -2.7; Glyco luc inh = 0.1; C2C12 statin = 3.7
# `C[C@@H]1CN([C@H](C)CO)C(=O)Cc2cc(NC(=O)Nc3cccc4ccccc34)ccc2O[C@H]1CN(C)CC1CCCCC1` across the screens: miR122 inh = -1.7[16.7 µM]; UUG fidelity = 1.6; Cneo AK release = 4.2; Glyco luc inh = x; C2C12 statin = 75.0*
# `CO[C@H]1CN(C)C(=O)c2ccc(NC(=O)C3CCC3)cc2OC[C@@H](C)N(CC2CCCCC2)C[C@@H]1C` across the screens: miR122 inh = x; UUG fidelity = x; Cneo AK release = -1.0; Glyco luc inh = x; C2C12 statin = 3.9

# (list continues)
Molecule,miR122 inh,UUG fidelity,Cneo AK release,Glyco luc inh,C2C12 statin
Cc1ccc(S(=O)(=O)N(C)C[C@H]2Oc3ccc(NC(=O)C4CCCCC4)cc3C(=O)N([C@H](C)CO)C[C@H]2C)cc1,24.3[16.7 µM],-6.8,10.3,44.7*,-0.1
Cc1noc(C)c1NC(=O)Nc1ccc2c(c1)C(=O)N(C)[C@H]1CC[C@@H](CC(=O)NCc3ccc(Cl)cc3)O[C@@H]1CO2,x,x,0.4,x,7.0
CC(=O)OCCCNc1cc(Sc2ccc(Cl)cc2)c2nonc2c1[N+](=O)[O-],x,x,x,0.4,x
Cc1ccc(Sc2cc(NCCCO)c([N+](=O)[O-])c3nonc23)cc1,-2.8,-10.3,32.3,2.7,102.3*
CCOC(=O)C1=C(C)Nc2ccccc2N=C1NC(=O)c1cccc(S(=O)(=O)N(C)C)c1,-2.3,-12.5,-0.6,0.2,111.5*
CCCNC(=O)Cn1c(=O)n(CC(=O)N2CCCCC2)c(=O)c2sccc21,-2.7,x,x,1.6,2.8
CC(C)NC(=O)Cn1c(=O)n(CC(=O)N2CCCCC2)c(=O)c2sccc21,-0.9,-20.7,-1.5,-1.2,101.1*
O=C(c1ccc(C(F)(F)F)cc1)C1CCCN(C(=O)CCN2CCCO2)C1 (stereo not drawn),13.1,-14.5,-6.2,-1.3,66.9*
O=C(c1ccc(C(F)(F)F)cc1)C1CCCN(C(=O)Cn2cncn2)C1 (stereo not drawn),2.7,-15.6,-0.7,x,x
CCOc1cc(CNn2nnnc2N)ccc1OCC(=O)NC(C)(C)C,6.8,-7.6,-0.2,-0.1,83.0*
CC(C)(C)NC(=O)C(=O)NNC(=O)COc1ccc(Br)cc1,-10.5,-0.8,-1.1,0.8,x
COCC(C)NS(=O)(=O)c1ccc(C)cc1 (stereo not drawn),0.8,8.9,-3.0,1.6,141.5*
O=C(O)CCCCCCC(=O)Nc1ccc(C2OC(CSCCO)CC(c3ccccc3)O2)cc1 (stereo not drawn),x,-2.8,-1.2,x,x
C=CCn1c(=N)c(C#N)cc2c(=O)n3ccccc3nc21,-1.2,x,x,0.7,93.5*
Cc1ccc(S(=O)(=O)c2cc3c(=O)n4ccccc4nc3n(CCc3ccccc3)c2=N)cc1,-2.2,-3.4,0.9,69.4*,-8.9
COc1ccc(CCn2c(=N)c(S(=O)(=O)c3ccccc3)cc3c(=O)n4ccccc4nc32)cc1,-2.4,-1.9,-1.3,7.5,-14.0
O=C(COC(=O)c1ccc(F)cc1F)Nc1ccc(S(=O)(=O)N2CCOCC2)cc1,-0.6,-8.8,2.1,-0.2,3.1
CC(C)C[C@@H](CO)N(Cc1ccccc1)S(=O)(=O)N(Cc1ccccc1)[C@H](CO)CC(C)C,15.5,0.2,-0.4,-2.3,126.3*
O=C(Nc1ncnc2sc3c(c12)CCCCC3)c1ccco1,7.7,x,x,1.4,128.2*
O=C(NC1CCN(C(=O)NCc2ccccc2)CC1)c1ccccc1,-2.4,x,x,-0.3,1.2
O=C(NC1CCN(C(=O)NCc2ccccc2)CC1)c1ccco1,12.9,-4.7,1.2,0.6,100.7*
COCCNC(=O)CN(C(=O)CCC(=O)Nc1ccccn1)c1ccccc1OC,1.2,29.8,0.2,2.7,0.6
COCCNC(=O)CN(C(=O)CCC(=O)Nc1nccs1)c1ccccc1OC,-1.3,-24.4,6.1,-1.2,108.8*
COc1ccc(NS(=O)(=O)c2cc(C)ccc2NC(=O)c2cc(C)oc2C)cc1,404.0*,5.9,-3.2,18.5,-101.2
COc1ccc(NS(=O)(=O)c2cccc(C(=O)NNC(=O)c3cc(C)oc3C)c2)cc1,x,x,x,2.1,x
O=c1c2c(nc3nc(SCc4ccccc4)[nH]n13)CCC2,112.2*,28.6,-1.2,0.4,4.6
O=c1c2c(nc3nc(COc4ccccc4)[nH]n13)CCC2,-1.1,-17.5,-0.5,0.8,-4.8
CC(C)c1ccc(CNc2nc3nc4c(c(=O)n3[nH]2)CCC4)cc1,-0.1,-26.4,0.4,0.1,111.3*
CCCNC(=O)Nc1ccc2c(c1)OC[C@H](C)N(C(=O)C1CCC1)C[C@H](C)[C@H](OC)CN(C)C2=O,-1.9[16.7 µM],13.5,-0.1,x,-9.8
C[C@H](CO)N1C[C@H](C)[C@H](CN(C)S(=O)(=O)c2ccc(Cl)cc2)Oc2ccc(NC(=O)CCC(F)(F)F)cc2CC1=O,48.3[16.7 µM],24.4,1.2,x,-118.8
C[C@H]1CN([C@@H](C)CO)C(=O)Cc2cc(NC(=O)CCC(F)(F)F)ccc2O[C@H]1CN(C)S(=O)(=O)c1ccc(F)cc1,0.3[16.7 µM],-4.2,9.7,40.0*,-55.0

# Screens from PubChem BioAssay.
